The target of the test is T1, Human fibrin γ377-395 (Human P2 peptide) (human).
T1 construct: In the crystal models, residues 410-421 of chain A are ordered; also called fibrin P2 peptide; fibrin P2 gamma peptide
T1 peptide: YSMKKTTMKIIPFNRLTIG
Briefly: BLI (ForteBio Octet): N-term biotinylated fibrin P2G peptide on SA tip, IgG in solution 100 nM (avid) [Cont.].

B1: ADI-THN227 (IgG) (antibody, V domains shown)
VH: QVQLVQSGAEVKKPGSSVKVSCKASGYTFTSYWIHWVRQAPGQGLEWIGLIDPSDSYTNYNQKFRGRVTITRDTSTSTAYMELSSLRSEDTAVYYCASSDPTGGWGQGTTVTVSS
VL: DIVMTQAAFSNPVTPGTPASISCRSSKSLLHSSGITYLSWYLQKPGQSPQLLIYQMSNLASGVPDRFSSSGSGTDFTLKISRVEAEDVGVYYCAQNLELPLTFGQGTKLEIKR
Consider B1, for which the binding result is “binds”.

The record behind these values is patent US20240279321A1 (THERINI BIO, published 2024).
